Values of other authors, collected in US20070025986A1, “Modulation of HCN channels by second messengers” (priority 2003, published 2007).

System: native pacemaker channels (IH)
Conditions: cited from earlier work

**Q.** Which “Δ V1/2” value does the source give for CCCN1CCC[C@@H]2Cc3n[nH]cc3C[C@H]21 [quinpirole] here?
**A.** Its value is −9 mV ORN; −17 mV ROD.
